Literature values as cited in patent US20020032197A1 (priority 1998, published 2002).

Tested on: muscarinic receptors
Settings: in vitro

O=C(NCCN1CCOCC1)c1ccc(Cl)cc1 [moclobemide, p-chloro-N-(2-morpholinoethyl)-benzamide]
affinity for muscarinic receptors: no appreciable affinity
